The test concerns the target T1, β-adrenergic receptors, guinea pig tracheal strips (Cavia porcellus, UniProt Q8K4Z4).
T1 construct: Spiral strips of guinea pig trachea; from tissue; host or cells: guinea pig trachea, spiral strips
The test is described as follows: β-blocking activity in vitro, guinea pig tracheal strips (tension response to isoproterenol). As to conditions: pA2 = -log KB, vs isoproterenol, 60-minute incubation. It counts as cell-based. How it is done: Each tissue was suspended between a fixed glass rod and a Statham Universal Transducer connected to a Beckman recorder. Atria were allowed to beat spontaneously under a loading tension of approximately 0.5 g. Changes in rate of response to isoproterenol, a standard β-receptor agonist, were measured in the absence and presence of test compounds. Spiral strips of guinea pig trachea were suspended under 5 g resting tension and incubated with phentolamine, tropolone, and cocaine. Active tension was generated by addition of carbachol (3.0×10^-7 M) and decreases in tension in response to isoproterenol were quantitated. Cumulative concentration response curves were produced with isoproterenol both before and after 60-minute incubation of test compounds with atria and trachea. Compounds with β-blocking activitiy shifted concentration response curves to the right. […] The degree of cardioselectivity was estimated from the ratio KB trachea/KB atria 10(pA2 Atria -pA^2 Trachea). A ratio greater than one indicates cardioselectivity. […]

By UniProt entry, the sequences of proteins in these tests, tags left out.
UniProt Q8K4Z4, whole entry: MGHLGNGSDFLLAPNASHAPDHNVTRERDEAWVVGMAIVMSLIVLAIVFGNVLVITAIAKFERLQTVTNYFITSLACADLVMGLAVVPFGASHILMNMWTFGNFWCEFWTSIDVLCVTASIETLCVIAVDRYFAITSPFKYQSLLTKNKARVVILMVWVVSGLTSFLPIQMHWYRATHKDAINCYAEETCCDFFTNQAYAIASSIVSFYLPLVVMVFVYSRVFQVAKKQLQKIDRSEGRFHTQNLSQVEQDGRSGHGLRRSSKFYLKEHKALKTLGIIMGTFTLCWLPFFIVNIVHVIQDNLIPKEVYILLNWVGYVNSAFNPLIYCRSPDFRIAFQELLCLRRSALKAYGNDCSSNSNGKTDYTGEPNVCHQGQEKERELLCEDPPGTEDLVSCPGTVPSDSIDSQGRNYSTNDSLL

As for `COC(=O)CCc1ccc(OCC(O)CNCc2ccccc2)cc1` (stereo not shown) [VII], the “pA2 Trachea” value amounted to 4.9.

Source of the values: patent US4593119A, “Method for treatment or prophylaxis of cardiac disorders” (American Hospital Supply Corporation, priority 1982, dated 1986).
